What was measured:
human μ-opiate receptor = human μ-opiate receptor (Homo sapiens, UniProt P35372); assay: Measurement of μ binding ([3H]-naloxone, CHO-K1 membrane preparation); conditions: test substance 1 μmol/liter
rat = assay: Tail-flick test carried out analogously on rats; conditions: i.v.
ORL1 receptor = ORL1 receptor (Homo sapiens, UniProt P41146); assay: Measurement of ORL1 binding (3H-nociceptin/orphanin FQ, membranes of recombinant CHO-ORL1 cells); conditions: c=1 μM

By UniProt entry, the sequences of proteins in these tests, tags left out. Where a name states a change or a piece, a line headed by the entry shows the natural chain unless it says otherwise.
UniProt P35372, whole entry, looked up: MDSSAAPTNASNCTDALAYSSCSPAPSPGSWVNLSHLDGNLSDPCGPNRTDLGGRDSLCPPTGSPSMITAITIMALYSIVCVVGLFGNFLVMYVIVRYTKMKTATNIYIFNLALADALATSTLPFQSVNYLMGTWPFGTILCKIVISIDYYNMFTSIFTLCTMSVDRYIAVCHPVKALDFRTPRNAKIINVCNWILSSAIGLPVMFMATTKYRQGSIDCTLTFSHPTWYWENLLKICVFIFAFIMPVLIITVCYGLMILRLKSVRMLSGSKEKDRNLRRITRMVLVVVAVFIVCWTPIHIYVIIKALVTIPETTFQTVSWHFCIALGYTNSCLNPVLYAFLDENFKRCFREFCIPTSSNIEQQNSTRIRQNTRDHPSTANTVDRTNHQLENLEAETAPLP
UniProt P41146: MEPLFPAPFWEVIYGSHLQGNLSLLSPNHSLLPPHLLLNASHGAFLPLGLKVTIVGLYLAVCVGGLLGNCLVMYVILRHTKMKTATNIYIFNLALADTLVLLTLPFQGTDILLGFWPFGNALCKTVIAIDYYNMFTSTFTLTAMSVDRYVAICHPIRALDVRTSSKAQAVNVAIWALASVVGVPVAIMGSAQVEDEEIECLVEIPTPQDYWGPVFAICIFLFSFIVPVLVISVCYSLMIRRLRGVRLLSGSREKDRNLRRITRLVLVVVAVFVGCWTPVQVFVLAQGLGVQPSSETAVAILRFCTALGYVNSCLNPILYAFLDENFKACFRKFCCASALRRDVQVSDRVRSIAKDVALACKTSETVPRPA

Row | Structure (SMILES) | μ % inhibition [1 μM] (human μ-opiate receptor) [%] | also measured
1 | C=CCC1(NCc2ccc(OC)cc2)CCC2(CC1)OCCc1c2[nH]c2ccc(F)cc12 (centres unmarked) | 53 | 
2 | CCCCC1(N(C)C)CCC2(CC1)OCCc1c2[nH]c2ccc(F)cc12 (single isomer, unassigned) |  | Tail-flick Rat ED50 (rat): Rat ED50 = 11 μg/kg
3 | CCCCC1(N2CCOCC2)CCC2(CC1)OCCc1c2[nH]c2ccc(F)cc12 (centres unmarked) | 36 | 
4 | CCCCC1(N2CCCC2)CCC2(CC1)OCCc1c2[nH]c2ccc(F)cc12 (centres unmarked) |  | ORL1 % inhibition [1 μM] (ORL1 receptor): 47%
5 | CCCCC1(N2CCN(C)CC2)CCC2(CC1)OCCc1c2[nH]c2ccc(F)cc12 (centres unmarked) | 34 | 
